The chains behind the UniProt entries cited, without tags or fusion partners.
UniProt P17812, whole entry: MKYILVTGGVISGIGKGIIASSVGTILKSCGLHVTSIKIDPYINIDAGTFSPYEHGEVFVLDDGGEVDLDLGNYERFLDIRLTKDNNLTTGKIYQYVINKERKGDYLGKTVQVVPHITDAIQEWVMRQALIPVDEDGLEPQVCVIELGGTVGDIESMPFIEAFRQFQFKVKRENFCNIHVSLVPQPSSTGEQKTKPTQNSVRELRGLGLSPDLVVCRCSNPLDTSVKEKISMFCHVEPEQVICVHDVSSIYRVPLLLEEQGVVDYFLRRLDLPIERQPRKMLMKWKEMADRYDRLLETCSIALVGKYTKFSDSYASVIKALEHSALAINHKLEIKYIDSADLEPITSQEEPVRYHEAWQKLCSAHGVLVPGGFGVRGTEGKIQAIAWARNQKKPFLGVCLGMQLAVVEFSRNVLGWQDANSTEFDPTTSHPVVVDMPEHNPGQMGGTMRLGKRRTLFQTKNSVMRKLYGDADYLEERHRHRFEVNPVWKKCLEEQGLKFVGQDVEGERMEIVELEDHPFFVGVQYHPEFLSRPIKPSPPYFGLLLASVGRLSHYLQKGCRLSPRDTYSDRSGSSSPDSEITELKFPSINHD
UniProt Q9NRF8, whole entry: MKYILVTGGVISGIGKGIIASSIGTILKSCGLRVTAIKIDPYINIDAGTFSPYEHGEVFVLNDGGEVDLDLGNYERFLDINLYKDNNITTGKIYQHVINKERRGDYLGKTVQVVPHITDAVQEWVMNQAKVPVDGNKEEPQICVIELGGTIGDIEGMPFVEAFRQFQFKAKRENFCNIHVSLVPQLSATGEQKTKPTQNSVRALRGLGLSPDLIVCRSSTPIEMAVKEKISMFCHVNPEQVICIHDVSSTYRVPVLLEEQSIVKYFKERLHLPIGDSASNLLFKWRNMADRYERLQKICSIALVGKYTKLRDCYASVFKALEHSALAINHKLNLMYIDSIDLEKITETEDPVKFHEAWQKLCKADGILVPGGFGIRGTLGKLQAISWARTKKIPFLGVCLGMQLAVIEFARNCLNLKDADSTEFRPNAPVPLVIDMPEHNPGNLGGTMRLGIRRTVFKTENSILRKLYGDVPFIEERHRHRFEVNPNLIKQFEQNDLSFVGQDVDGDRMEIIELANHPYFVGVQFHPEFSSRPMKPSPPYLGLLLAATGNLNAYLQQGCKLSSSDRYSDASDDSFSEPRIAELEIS

According to patent EP4840855A1, “SULFONAMIDE DERIVATIVE, PREPARATION METHOD THEREFOR AND USE THEREOF” (dated 2026):

Assays:
[1] = target: human cytidine triphosphate synthase 1 (hCTPS1) (Homo sapiens, UniProt P17812); assay: Inhibition on hCTPS1 enzyme activity (ADP-Glo Kinase Assay); conditions: 40 nM hCTPS1, 120 µM ATP, 160 µM UTP, 60 µM GTP, 100 µM L-Glutamine, 120 minutes
Description: (§1) The following method was used to determine the degree of inhibition on human cytidine triphosphate synthase 1 (hCTPS1) enzyme activity by the compounds of the present disclosure in vitro. ADP-Glo™ Kinase Assay kit (catalog number V9102) from Promega was used in this method. The kit's manual may be referred for a detailed experimental procedure.
The experimental procedure was briefly described as follows: The reaction was performed in a buffer containing 50 mM 4-hydroxyethylpiperazineethanesulfonic acid (HEPES), 10 mM magnesium chloride, 5 mM potassium chloride, 0.01% Pluronic F127, and 4 mM dithiothreitol in a 384-well plate. First, 100 nL of gradient-diluted compound was transferred to the 384-well plate via a nanoliter acoustic liquid transfer system (manufacturer: Labcyte; catalog number: Echo 655), and 2.5 µL of buffer containing hCTPS1 was added, followed by incubation in a 25°C incubator for 10 minutes. Then 2.5 µL of buffer containing ATP and UTP was added, followed by incubation in a 25°C incubator for 10 minutes. Finally, 5 µL of buffer containing GTP and L-glutamine (L-Gln) was added to initiate the reaction. The final reaction system was: 40 nM hCTPS1, 120 µM ATP, 160 µM UTP, 60 µM GTP, 100 µM L-Glutamine, 1% DMSO, with a total assay volume of 10 µL. The reaction was performed for 120 minutes, then 10 µL of ADP-Glo Reagent was added, followed by incubation for 1 hour. Then 20 µL of Kinase Detection Reagent was added, and after 1 hour, the chemiluminescence value was recorded on a Microbeta microplate reader (manufacturer: PerkinElmer; catalog number: Envision). The percentage inhibition rates of the compounds at each concentration were calculated by comparing the chemiluminescence intensity ratio with a control group (0.1% DMSO). The IC50 value of the compounds were obtained by nonlinear regression analysis of compound concentration logarithm-inhibition rate using GraphPad Prism 5 software, as shown in Table 2. Table 2 IC50 data for inhibition on hCTPS1 enzyme activity by the compounds of the present disclosure

[2] = target: human cytidine triphosphate synthase 2 (hCTPS2) (Homo sapiens, UniProt Q9NRF8); assay: Inhibition on hCTPS2 enzyme activity (ADP-Glo Kinase Assay), selectivity hCTPS1 versus hCTPS2; conditions: for Fold selectivity: Fold selectivity = hCTPS2 IC50/hCTPS1 IC50; for IC50: read-out: hCTPS2 IC50, 40 nM hCTPS2, 120 µM ATP, 160 µM UTP, 60 µM GTP, 100 µM L-Glutamine, 120 minutes
Description: as §1, with “2 (hCTPS2)” for “1 (hCTPS1)”, “used.” for “used in this method.”
The experimental procedure was briefly described as follows: The reaction was performed in a buffer containing 50 mM 4-hydroxyethylpiperazineethanesulfonic acid (HEPES), 10 mM magnesium chloride, 5 mM potassium chloride, 0.01% Pluronic F127, and 4 mM dithiothreitol in a 384-well plate. First, 100 nL of gradient-diluted compound was transferred to a 384-well reaction plate via a nanoliter acoustic liquid transfer system (manufacturer: Labcyte; catalog number: Echo 655), and 2.5 µL of buffer containing hCTPS2 was added, followed by incubation in a 25°C incubator for 10 minutes. Then 2.5 µL of buffer containing ATP and UTP was added, followed by incubation in a 25°C incubator for 10 minutes. Finally, 5 µL of buffer containing GTP and L-glutamine (L-Gln) was added to initiate the reaction. The final reaction system was: 40 nM hCTPS2, 120 µM ATP, 160 µM UTP, 60 µM GTP, 100 µM L-Glutamine, 1% DMSO, with a total assay volume of 10 µL. The reaction was performed for 120 minutes, then 10 µL of ADP-Glo Reagent was added to terminate the reaction, followed by incubation for 1 hour. Then 20 µL of Kinase Detection Reagent was added, and after 1 hour, the chemiluminescence value was recorded on an Envision multilabel microplate detector (manufacturer: PerkinElmer; catalog number: Envision 2104). The percentage inhibition rates of the compounds at each concentration were calculated by comparing the chemiluminescence intensity ratio with a control group (0.1% DMSO). The IC50 value of the compounds were obtained by nonlinear regression analysis of compound concentration logarithm-inhibition rate using GraphPad Prism 5 software.
The fold selectivity between CTPS1 and CTPS2 was calculated according to the following equation: Fold selectivity = hCTPS2 IC50/hCTPS1 IC50 [formula]

[3] = Pharmacokinetic testing in mice (plasma concentration by LC-MS/MS); conditions: ICR mice, male, Oral (10 mg/kg), fasted overnight
Description: ICR mice were used as test animals. Plasma concentrations of the test compounds at different time points were measured by LC/MS/MS after intragastrical administration of the reference compound STP-B and the compounds of the present disclosure, and the pharmacokinetic characteristics of the compounds of the present disclosure in mice were studied.
ICR mice, male, 30.8 to 38.0 g, purchased from Vital River Laboratory Animal Technology Co., Ltd.
An appropriate amount of the test compound was weighed, and an appropriate amount of DMA (N,N-dimethylacetamide), 30% Solutol HS15 (30% polyethylene glycol-15 hydroxystearate), and saline were added sequentially, mixed by ultrasonication and vortexing to prepare a 1 mg/mL dosing formulation. The ratio of DMA:30% Solutol HS15:saline was 10:10:80 (v/v/v).
ICR mice in each test compound injection group (9 mice per group) were fasted overnight and then administered intragastrically (PO, compound dose was 10 mg/kg, dosing volume was 10 mL/kg), and fed 4 hours after dosing.
About 0.1 mL of blood was collected from the orbit before dosing and at 0.25 h, 0.5 h, 1 h, 2 h, 4 h, 8 h, 10 h, and 24 h after dosing, and whole blood samples were placed in anticoagulant tubes containing EDTA-K2. After blood sample collection, samples were placed on ice and centrifuged to separate plasma (centrifugation conditions: 1500 g, 10 minutes). The collected plasma was stored at -40 to -20°C before analysis.
The content of test compounds in mouse plasma after intragastrical administration was determined by LC-MS/MS.

[4] = tested on: Jurkat (Clone E6-1) cells; assay: Inhibition on Jurkat cell proliferation (CellTiter-Glo cell viability); conditions: 72 hours culture
Description: (§2) The following method was used to determine the effect of the compounds of the present disclosure on Jurkat cell proliferation. Jurkat (Clone E6-1) cells were purchased from the Cell Resource Center of Shanghai Institutes for Biological Sciences, Chinese Academy of Sciences, and were cultured in RPMI 1640 medium containing 10% fetal bovine serum, 100 U penicillin, and 100 µg/mL streptomycin. Cell viability was measured using a CellTiter-Glo® Luminescent Cell Viability Assay kit (Promega, catalog number G7573).
The experiment was performed according to the kit's manual, briefly summarized as follows: test compounds were first dissolved in DMSO to prepare 10 mM stock solutions, which were then diluted with medium to prepare test samples. The final concentration range of the compounds was from 10000 nM to 1.52 nM. Cells in the logarithmic growth phase were seeded into a 96-well cell culture plate at a density of 1000 cells per well, and test compounds were added. The cells were cultured in a 37°C CO2 incubator for 72 hours. After culturing, 50 µL of CellTiter-Glo detection reagent was added to each well, the plate was shaken for 5 minutes, and allowed to stand for 10 minutes. The luminescence of each well was then measured using a microplate reader in Luminescence mode. The percentage inhibition at each concentration point was calculated by comparison with the control group (0.1% DMSO). Nonlinear regression analysis of compound concentration logarithm versus inhibition rate was performed using GraphPad Prism 9 software to obtain the IC50 values of the compounds for inhibiting cell proliferation, as shown in Table 1. Table 1 IC50 Data for Inhibition on Jurkat Cell Proliferation by the Compounds of the Present Disclosure

[5] = tested on: MIA PaCa-2 cells (human pancreatic cancer cells); assay: Inhibition of MIA PaCa-2 cell proliferation (CellTiter-Glo cell viability); conditions: 120 hours culture
Description: as §2, with “the proliferation of MIA PaCa-2 cells (human pancreatic cancer cells). MIA PaCa-2” for “Jurkat cell proliferation. Jurkat (Clone E6-1)”, “DMEM” for “RPMI 1640”, “serum, 2.5% heat-inactivated horse serum, 1% sodium pyruvate (Gibco, catalog number 11360070),” for “serum,”, “determined” for “measured”, “using” for “using a”
(§3) The experimental method was performed according to the steps in the kit's manual, briefly described as follows: The test compound was first dissolved in DMSO to prepare a 10 mM stock solution, then diluted with medium to prepare test samples, with a final concentration range of the compound from 10000 nM to 1.52 nM. Cells in logarithmic growth phase were seeded into a 96-well cell culture plate at a density of 1000 cells per well, then the test compounds were added, and the cells were cultured in a 37°C CO2 incubator for 120 hours. After culture was completed, 50 µL of CellTiter-Glo detection reagent was added to each well, the plate was shaken for 5 minutes, then allowed to stand for 10 minutes, and then the luminescence value of each well of the sample was read on a microplate reader using Luminescence mode. The percentage inhibition rates of the compounds at each concentration point were calculated by comparing with the value of a control group (0.1% DMSO). Then nonlinear regression analysis was performed on compound concentration logarithm-inhibition rate in GraphPad Prism 9 software to obtain the IC50 values of the compounds for inhibiting cell proliferation, as shown in Table 5. Table 5 IC50 data for inhibition of MIA PaCa-2 cell proliferation by the compounds of the present disclosure

[6] = tested on: BxPC-3 cells (human primary pancreatic cancer cells); assay: Inhibition on BxPC-3 cell proliferation (CellTiter-Glo cell viability); conditions: 120 hours culture
Description: as §2, with “the proliferation of BxPC-3 cells (human primary pancreatic cancer cells). BxPC-3” for “Jurkat cell proliferation. Jurkat (Clone E6-1)”, “DMEM” for “RPMI 1640”, “determined” for “measured”, “using” for “using a”
as §3, with “Table 4.” for “Table 5.”, “Table 4” for “Table 5”, “inhibition on BxPC-3” for “inhibition of MIA PaCa-2”

SMILES	IC50 [1] [nM]	Fold selectivity [2]	IC50 [2] [nM]	AUC AUC0-1(ng·h/mL) [3] [ng·h/mL]	Half-life T1/2 [3] [h]	Plasma concentration Cmax [3] [ng/mL]	IC50 [4] [nM]	IC50 [5] [nM]	IC50 [6] [nM]
CCOc1cncc(-c2ccc(NC(=O)C3(c4nccc(NS(=O)(=O)C5CC5)n4)CC4CC4C3)cc2)n1 (centres unmarked)	5.2	150	766	59700	2.27	20300	14.2	–	–
CCOc1cncc(-c2ccc(NC(=O)C3(c4cc(NS(=O)(=O)C5CC5)ccn4)CC4CC4C3)nc2)n1 (centres unmarked)	–	–	–	188312	2.29	26392	8.81	15.7	1.54

These reach a lower IC50 [4]. Values come first.

IC50 [1] [nM]	Fold selectivity [2]	IC50 [2] [nM]	AUC AUC0-1(ng·h/mL) [3] [ng·h/mL]	Half-life T1/2 [3] [h]	Plasma concentration Cmax [3] [ng/mL]	IC50 [4] [nM]	IC50 [5] [nM]	IC50 [6] [nM]	SMILES
–	–	–	106895	1.06	28222	7.24	35.5	5.96	CCOc1cncc(-c2ccc(NC(=O)C3(c4cc(NS(=O)(=O)C5CC5)ccn4)CC4CC4C3)c(F)c2)n1 (centres unmarked)
–	–	–	138092	3.32	34464	2.49	39.7	9.64	CCOc1cncc(-c2ccc(NC(=O)C3(c4nccc(NS(=O)(=O)C5CC5)n4)CC4CC4C3)nc2)n1 (centres unmarked)
5.6	1000	6020	125552	1.87	27571	1.58	–	–	CCOc1cncc(-c2ccc(NC(=O)C3(c4cc(NS(=O)(=O)C5CC5)ccn4)CC4CC4C3)cc2)n1 (centres unmarked)
